# Measurements: PubChem BioAssay AID449728 (The Scripps Research Institute Molecular Screening Center, 2010)
# This is a selection; strong and weak results do not stand in their true shares. Activity calls are given as the source filed them.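 How the source made its calls: active means inhibition above the campaign's mean inhibition across all tested compounds plus 3 SD (cut at about 9.9% in these data); inactive means the rest.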
# Assay: bacterial viability reduction in E. coli – absorbance, OD600, counter-screen for AddAB inhibitor project, primary screen (AID 449728);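 further: uninfected addAB+ strain grown without phage in ampicillin broth; 0% = DMSO wells and 100% = ciprofloxacin 0.95 µg/ml wells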
# Settings: E. coli V3065 growth, 18 h, at 11.9 µM, hits give high values
row,Compound,inhibition
1,CCC(=O)N(c1ccccc1)C1(COC)CCN(CCc2cccs2)CC1,inactive: -0.44%
2,CCC(=O)N(c1ccccc1)C1(COC)CCN(CCn2nnn(CC)c2=O)CC1,inactive: -0.44%
